Experimental data taken from patent US20080008771A1, “Nitric Oxide Dioxygenase Inhibitors” (priority 2004, published 2008).

Test system: microsomal NO metabolism (Caco-2 microsomes)

Sn(IV)-protoporphyrin IX [Sn4+-protoporphyrin]
Effect of porphyrins on microsomal NO metabolism: but not
